From BindingDB's records for patent US11312688 (Sumitomo Dainippon Pharma, 2022)

Amino acid sequences for entries named in this document (tags omitted). A change or cut given only in a name is not applied to a line headed by its entry.
UniProt P28335: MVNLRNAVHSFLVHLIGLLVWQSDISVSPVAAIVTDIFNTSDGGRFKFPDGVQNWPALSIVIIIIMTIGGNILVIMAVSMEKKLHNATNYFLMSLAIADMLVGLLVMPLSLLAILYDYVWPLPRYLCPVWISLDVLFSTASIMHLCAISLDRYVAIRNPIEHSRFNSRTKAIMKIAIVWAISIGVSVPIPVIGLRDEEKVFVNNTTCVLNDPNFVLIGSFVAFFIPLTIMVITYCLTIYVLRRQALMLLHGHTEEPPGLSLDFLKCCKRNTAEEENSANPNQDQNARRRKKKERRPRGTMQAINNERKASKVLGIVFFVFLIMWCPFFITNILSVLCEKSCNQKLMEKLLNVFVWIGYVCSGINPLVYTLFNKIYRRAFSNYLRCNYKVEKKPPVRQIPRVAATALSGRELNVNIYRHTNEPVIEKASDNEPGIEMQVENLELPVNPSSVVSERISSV
UniProt P31645, whole entry: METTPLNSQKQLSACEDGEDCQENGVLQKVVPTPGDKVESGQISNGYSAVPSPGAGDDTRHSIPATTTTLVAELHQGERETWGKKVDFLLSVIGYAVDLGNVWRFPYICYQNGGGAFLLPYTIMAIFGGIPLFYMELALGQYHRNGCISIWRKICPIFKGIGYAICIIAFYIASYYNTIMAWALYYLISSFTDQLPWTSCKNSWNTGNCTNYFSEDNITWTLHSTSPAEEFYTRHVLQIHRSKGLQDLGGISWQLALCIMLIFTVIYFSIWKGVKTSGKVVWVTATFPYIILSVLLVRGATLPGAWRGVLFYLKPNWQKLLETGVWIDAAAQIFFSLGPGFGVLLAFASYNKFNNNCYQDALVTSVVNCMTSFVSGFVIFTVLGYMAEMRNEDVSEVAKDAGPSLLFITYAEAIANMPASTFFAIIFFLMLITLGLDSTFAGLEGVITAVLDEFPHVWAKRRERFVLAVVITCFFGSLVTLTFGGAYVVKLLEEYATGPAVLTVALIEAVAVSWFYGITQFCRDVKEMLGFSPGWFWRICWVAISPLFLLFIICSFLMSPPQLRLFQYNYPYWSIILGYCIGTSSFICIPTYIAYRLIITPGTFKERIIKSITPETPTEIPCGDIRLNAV

Experiments:
[1] = molecular target: 5-hydroxytryptamine receptor 2C (Homo sapiens, UniProt P28335)
[2] = molecular target: Sodium-dependent serotonin transporter (Homo sapiens, UniProt P31645)

Q: What does the source list for `CCC(CC)n1nc(CNC)cc1OCc1cc(Cl)ccc1F` [US11312688, Example 256]?
A: Ki [1]: 12 nM; Ki [2]: 1.6 nM
